Literature values in article PMC3823235 (Biochemistry, 2013).

Molecular target: T1, recombinant hGAR Tfase (Homo sapiens, UniProt P22102)
T1 sequence (P22102 808-1010): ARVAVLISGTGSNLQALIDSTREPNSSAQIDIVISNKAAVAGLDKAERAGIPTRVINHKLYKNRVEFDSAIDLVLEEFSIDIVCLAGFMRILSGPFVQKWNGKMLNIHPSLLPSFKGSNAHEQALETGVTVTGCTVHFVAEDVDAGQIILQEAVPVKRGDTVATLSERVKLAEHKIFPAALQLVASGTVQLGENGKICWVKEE
Settings: read-out: Ki, hGAR Tfase; diastereomer mixture; cited from earlier work

10R/S-methylthio-DDACTHF [compound 6]
Ki: 250 nM
